Test results reported in patent US10023592B2, “Bromodomain inhibitors” (Celgene Quanticel Research, Inc., priority 2013, dated 2018).

Experiments:
[1] = test system: Raji, human Burkitts lymphoma cells; test: Cell-MTS proliferation assay, Raji; type: cell-based; conditions: 168 hr, class symbols A/B/C
Procedure: (§1) The Cell-MTS assay is a 7-day plate-based colorimetric assay which quantifies the amount of newly generated NADH in the presence or absence of test compound. The NADH level is used for the quantification of cancer cell proliferation.
(§2) Established cancer cell lines with a variety of driving mutations were obtained from American Type Culture Collection (ATCC) and routinely passaged according to ATCC protocols. For routine assay, these cells were seeded at densities which enabled ˜90% confluence after 7 days of culture. Raji, human Burkitts lymphoma cells, (cMYC) were seeded at 15,000 cells per 96-well. HL-60, human proleukemia cells, (NRAS, p16, p53, c-Myc amplified) were seeded at 5,000 cells per 96-well. NCI-H460, human non-small cell lung cancer cells, (KRAS, PIK3CA, STLK11, p16) were seeded at 3,000 cells per 96-well. 24 hr after plating, cells received an 11-point dilution of test compound with final concentration ranges from 100 μM to 2.0 nM. […] At the end of this incubation period, 80 μL of media is removed and 20 μL of CellTiter 96® AQueous Non-Radioactive Cell Proliferation Assay soln (Promega) was added. The cells were incubated until the OD490 was >0.6. IC50 values were calculated using the IDBS XLfit software package and include background subtracted OD490 values and normalization to DMSO controls. […]

[2] = test system: NCI-H460, human non-small cell lung cancer cells; test: Cell-MTS proliferation assay, NCI-H460; type: cell-based; conditions: 168 hr, class symbols A/B/C
Procedure: as §1, §2

[3] = test system: HL-60, human proleukemia cells; test: Cell-MTS proliferation assay, HL-60; type: cell-based; conditions: 168 hr, class symbols A/B/C
Procedure: as §1, §2

BRD4(BD1) = BRD4(BD1) (Homo sapiens (Human), UniProt O60885); test: In vitro enzyme inhibition assay (BRD4 AlphaScreen); type: binding
Procedure: His-tagged BRD4 was cloned, expressed and purified to homogeneity. […] BRD4 binding and inhibition was assessed by monitoring the interaction of biotinylated H4-tetraacetyl peptide (AnaSpec, H4K5/8/12/16(Ac), biotin-labeled) with the target using the AlphaScreen technology (Life Technologies). […] After 20 min incubation at room temp, Alpha streptavidin donor beads and Nickel Chelate acceptor beads were added to a final concentration of 5 μg/mL.
The ability of the compounds disclosed herein to inhibit BRD4 activity was quantified and the respective IC50 value was determined.

CCS(=O)(=O)Nc1cccc(-c2cn(C)c(=O)c3ccc(C)cc23)c1 [Example 75, N-[3-(2,6-dimethyl-1-oxoisoquinolin-4-yl)phenyl]ethanesulfonamide]
IC50 [1]: < 500 nM | IC50 [2]: > 5000 nM | IC50 [3]: < 500 nM

CCS(=O)(=O)Nc1cccc(-c2cn(C)c(=O)c3ccccc23)c1 [Example 13, N-[3-(2-methyl-1-oxoisoquinolin-4-yl)phenyl]ethanesulfonamide]
IC50 [1]: < 500 nM | IC50 [3]: < 500 nM

CCCCc1cnc(NS(=O)(=O)CC)nc1-c1ccc(=O)n(C)c1 [Example 358, N-[5-butyl-4-(1-methyl-6-oxopyridin-3-yl)pyrimidin-2-yl]ethanesulfonamide]
IC50 (BRD4(BD1)): < 500 nM
